Measurements from PubChem BioAssay AID624467 (The Scripps Research Institute Molecular Screening Center, 2012).
This is a selection; strong and weak results do not stand in their true shares. The source made the active and inactive calls.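 How the source made its calls: active means activation above the mean activation of all test compounds in the run plus 3 SD (cut at about 38% in these data); inactive means the rest.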

Protein sequences, listed by entry. Tags and fused reporters are not part of them.
UniProt Q96RJ0, whole entry: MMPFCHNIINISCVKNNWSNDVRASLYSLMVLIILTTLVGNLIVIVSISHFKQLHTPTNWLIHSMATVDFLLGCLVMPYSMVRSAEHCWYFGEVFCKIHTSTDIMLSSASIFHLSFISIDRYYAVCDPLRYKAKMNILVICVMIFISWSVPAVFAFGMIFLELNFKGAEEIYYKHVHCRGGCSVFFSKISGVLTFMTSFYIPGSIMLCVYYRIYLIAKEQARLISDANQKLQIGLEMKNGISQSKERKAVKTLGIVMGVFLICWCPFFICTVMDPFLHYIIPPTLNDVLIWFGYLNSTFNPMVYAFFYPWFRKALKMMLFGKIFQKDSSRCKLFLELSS

Biological target: Trace amine-associated receptor 1 (Homo sapiens) (UniProt Q96RJ0)
Test: human TAAR1 agonists, primary screen, Fluo-8 calcium fluorescence, CHO RD-HGA16 cells (AID 624467)
Settings: CHO RD-HGA16 TAAR1, Fluo-8 calcium fluorescence; at 3 µM; stronger effect = higher value; vehicle wells 0%, saturating PEA agonist 100%

Compound | activation
Cc1cc(N(CCCl)CCCl)ccc1C=O | inactive: -0.83%
CCCN1CCC(Nc2cc(OC)cc(OC)c2)CC1 | inactive: 1.94%
O=c1[nH]c2ccccc2n1C1CCN(C(c2ccccc2)c2nnnn2C2CCCC2)CC1 (stereo unspecified) | inactive: 13.3%
c1ccc(CN2CCC(Nc3ccccc3)CC2)cc1 | inactive: 4.67%
C/C(N)=N\P(=O)(Oc1ccccc1)Oc1ccccc1 | inactive: 1.16%
CN(C)C1(CNC(=O)c2cccc(C#N)c2)CCCCC1 | inactive: 0.6%
CC(C)(C)n1nnnc1C(c1cccc2ccccc12)N1CCC(n2c(=O)[nH]c3ccccc32)CC1 (stereo unspecified) | inactive: 2.83%
CC(C)(C)OC(=O)N1CCC(N(C(=O)c2ccccc2)c2ccc(Cl)cc2)CC1 | inactive: 2.19%
N#Cc1ccc(C(=O)NCC2(N3CCCCC3)CCCCC2)cc1 | inactive: 0.48%
N/C(=N\O)c1c(N)no[n+]1[O-] | inactive: -0.4%
COc1cccc(C(c2nnnn2C(C)(C)C)N2CCC(n3c(=O)[nH]c4ccccc43)CC2)c1OC (stereo unspecified) | inactive: 8.99%
CCOC(=O)N1CCC(Nc2ccc(C)cc2)CC1 | inactive: 0.52%
CCCCn1nnnc1C(c1cccc(OC)c1OC)N1CCC(n2c(=O)[nH]c3ccccc32)CC1 (stereo unspecified) | inactive: 8.64%
O=c1[nH]c2ccccc2n1C1CCN(C(c2cccs2)c2nnnn2C2CCCC2)CC1 (stereo unspecified) | inactive: 26.4%
O=C(OC1CN2CCC1CC2)C1c2ccccc2C=Cc2ccccc21 (stereo unspecified) | inactive: 2.68%
O=C(NCC1(N2CCOCC2)CCCCC1)c1cc(Br)ccc1Cl | inactive: -1.56%
COc1cc(C(=O)NCC2(N3CCOCC3)CCCCC2)cc(OC)c1C | inactive: -0.35%
CCCCn1nnnc1C(c1ccccc1)N1CCC(n2c(=O)[nH]c3ccccc32)CC1 (stereo unspecified) | inactive: 9.56%
O=c1[nH]c2ccccc2n1C1CCN(C(c2ccnc3ccccc23)c2nnnn2C2CCCC2)CC1 (stereo unspecified) | inactive: 14.4%
COc1ccc(C(=O)NCC2(N3CCOCC3)CCCCC2)cc1OC | inactive: -1%
O=c1[nH]c2ccccc2n1C1CCN(C(c2cccs2)c2nnnn2C2CCCCC2)CC1 (stereo unspecified) | inactive: 35.3%

Compound | activation
O=C(NCC1(N2CCCCC2)CCCCC1)c1cncc(Br)c1 | inactive: 1%
CN1CCC(Nc2cccc(F)c2)CC1 | inactive: 7.96%
CCCOc1ccc(C(=O)NCC2(N(C)C)CCCCC2)cc1OC | inactive: -0.47%
Cc1ccc(C(=O)NCC2(N(C)C)CCCCC2)o1 | inactive: 5.55%
COc1ccc(C(c2nnnn2C2CCCC2)N2CCC(n3c(=O)[nH]c4ccccc43)CC2)cc1 (stereo unspecified) | inactive: 4.71%
CN(C)c1cccc(C(=O)NCC2(N3CCCCC3)CCCCC2)c1 | inactive: -0.52%
COc1ccc(CN(CCCl)CCCl)cc1Cl | inactive: 9.62%
CC(C)c1ccc(NC2CCN(C(=O)OC(C)(C)C)CC2)cc1 | inactive: 4.64%
CCCCn1nnnc1C(c1ccnc2ccccc12)N1CCC(n2c(=O)[nH]c3ccccc32)CC1 (stereo unspecified) | inactive: 17.8%
CCC(c1nnnn1C(C)(C)C)N1CCC(n2c(=O)[nH]c3ccccc32)CC1 (stereo unspecified) | inactive: 6.24%
O=C(NCC1(N2CCOCC2)CCCCC1)c1cc(F)c(F)cc1Cl | inactive: 10.3%
COc1cc(OC)c(C(=O)NCC2(N(C)C)CCCCC2)cc1OC | inactive: 2.57%
O=C(NCC1(N2CCCCC2)CCCCC1)c1cccc(C(F)(F)F)c1 | inactive: -1.97%
CCCCn1nnnc1C(c1cccc2ccccc12)N1CCC(n2c(=O)[nH]c3ccccc32)CC1 (stereo unspecified) | inactive: 1.73%
CN1CCN(CCOC(=O)C(O)(c2ccccc2)c2ccccc2)CC1 | inactive: 1.25%
CC(C)c1ccc(C(=O)NCC2(N3CCOCC3)CCCCC2)cc1 | inactive: -1.5%
COc1ccc(NC2CCN(C(=O)OC(C)(C)C)CC2)cc1 | inactive: 4.84%
COc1cc(C(=O)NCC2(N3CCCCC3)CCCCC2)ccc1OC(F)F | inactive: 1.44%
O=C(NCC1(N2CCOCC2)CCCCC1)c1cc(=O)[nH]c2ccccc12 | inactive: 0.66%
O=C(NCC1(N2CCCCC2)CCCCC1)c1ccc(OC(F)F)cc1 | inactive: -2.22%
CC(C)(C)n1nnnc1C(c1ccccc1OC(F)(F)F)N1CCC(n2c(=O)[nH]c3ccccc32)CC1 (stereo unspecified) | inactive: 5.17%

Compound | activation
CSc1ccc(C(=O)NCC2(N3CCOCC3)CCCCC2)cc1 | inactive: -0.17%
O=C(NCC1(N2CCCCC2)CCCCC1)c1cccc([N+](=O)[O-])c1 | inactive: -0.97%
N#CC1(Nc2ccccc2)CCN(CCc2ccccc2)CC1 | inactive: 2.28%
O=c1[nH]c2ccccc2n1C1CCN(C(c2ccccc2OC(F)(F)F)c2nnnn2C2CCCC2)CC1 (stereo unspecified) | inactive: -0.24%
CCN1CCC(Nc2ccc(Cl)cc2)CC1 | inactive: 2.59%
O=c1[nH]c2ccccc2n1C1CCN(C(c2ccccc2)c2nnnn2C2CCCCC2)CC1 (stereo unspecified) | inactive: 30.5%
O=c1[nH]c2ccccc2n1C1CCN(C(c2cccc3ccccc23)c2nnnn2C2CCCC2)CC1 (stereo unspecified) | inactive: 0.05%
COc1cc(C(=O)NCC2(N(C)C)CCCCC2)ccc1OC(F)F | inactive: 12.9%
CCOC(=O)N1CCC(Nc2cccc(C)c2)CC1 | inactive: 6.97%
CCOc1ccc(C)cc1CN(CCCl)CCCl | inactive: -0.68%
O=C1CCN(Cc2ccccc2)CC1 | inactive: 0.88%
CC(C)(C)n1nnnc1C(c1ccccc1)N1CCC(n2c(=O)[nH]c3ccccc32)CC1 (stereo unspecified) | inactive: 11.5%
COc1ccc(NC2CCN(CCc3ccccc3)CC2)c(OC)c1 | inactive: 9.38%
CCOC(=O)N1CCC(Nc2ccc(F)cc2)CC1 | inactive: -1.39%
O=C(NCC1(N2CCCCC2)CCCCC1)c1ccc(F)cc1 | inactive: -2.38%
O=P1(N(CCCl)CCCl)SCCCS1 | inactive: 0.18%
CCCCn1nnnc1C(c1cc2ccccc2o1)N1CCC(n2c(=O)[nH]c3ccccc32)CC1 (stereo unspecified) | inactive: 3.56%
CCCCOc1ccc(C(=O)NCC2(N3CCOCC3)CCCCC2)cc1 | inactive: -1.69%
O=C(NCC1(N2CCOCC2)CCCCC1)c1cc2ccccc2o1 | inactive: -3.82%
Cc1cc(C)cc(N(C(=O)c2ccccc2)C2CCN(C(=O)OC(C)(C)C)CC2)c1 | inactive: 0.23%
O=c1[nH]c2ccccc2n1C1CCN(C(c2ccccc2OC(F)(F)F)c2nnnn2C2CCCCC2)CC1 (stereo unspecified) | inactive: 7.5%

Compound | activation
O=C(NCC1(N2CCCCC2)CCCCC1)c1ccc(Cl)nc1 | inactive: 3.08%
CCCCn1nnnc1C(c1ccc(OC)cc1)N1CCC(n2c(=O)[nH]c3ccccc32)CC1 (stereo unspecified) | inactive: 13.6%
CCOC(=O)N1CCC(Nc2ccc(OC)cc2)CC1 | inactive: 2.64%
COc1ccc(Cl)cc1C(=O)NCC1(N2CCOCC2)CCCCC1 | inactive: -0.03%
O=C(OC1CN2CCC1CC2)C1c2ccccc2Oc2ccccc21 (stereo unspecified) | inactive: 1.2%
O=c1[nH]c2ccccc2n1C1CCN(C(c2cc3ccccc3o2)c2nnnn2C2CCCCC2)CC1 (stereo unspecified) | inactive: 6.6%
N#CC1(Nc2ccccc2)CCN(Cc2ccccc2)CC1 | inactive: 0.46%
O=C(NCC1(N2CCCCC2)CCCCC1)c1ccc(Cl)s1 | inactive: -0.08%
CCCCn1nnnc1C(c1cccs1)N1CCC(n2c(=O)[nH]c3ccccc32)CC1 (stereo unspecified) | inactive: 14%
O=C(NCC1(N2CCCCC2)CCCCC1)c1cccs1 | inactive: 1.22%
CCCCn1nnnc1C(CC)N1CCC(n2c(=O)[nH]c3ccccc32)CC1 (stereo unspecified) | inactive: 21.3%
O=C(NCC1(N2CCCCC2)CCCCC1)c1ccc(=O)[nH]c1 | inactive: 2.32%
CCC(c1nnnn1C1CCCC1)N1CCC(n2c(=O)[nH]c3ccccc32)CC1 (stereo unspecified) | inactive: 8.44%
CC(C)(C)OC(=O)N1CCC(N(C(=O)c2ccccc2)c2ccc(F)cc2)CC1 | inactive: -1.2%
COc1ccc(C(=O)NCC2(N3CCCCC3)CCCCC2)c(OC)c1OC | inactive: -0.53%
COc1ccc(C(=O)NCC2(N3CCCCC3)CCCCC2)cc1 | inactive: -2.88%
Cc1cccc(NC2(C#N)CCN(Cc3ccccc3)CC2)c1 | inactive: 1.66%
CSc1ccccc1C(=O)NCC1(N2CCCCC2)CCCCC1 | inactive: -1.38%
